Laboratory results as given in PubChem BioAssay AID1246 (Columbia University Molecular Screening Center, 2008).
The list shows a part of the results, in another mix than the full data. Some tests of the compounds listed are not included; inactive here does not mean inactive elsewhere. The source made the active and inactive calls.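 How the source made its calls: active means inhibition above the batch mean plus 3 SD, and confirmed as a hit on visual image review (cut at about 43% in these data); inconclusive means passes the inhibition cutoff but fails visual image review; inactive means the rest.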

Assay: E-selectin induction blockers in HUVEC – imaging, immunofluorescence, high content, primary screen (AID 1246);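 further: 0% = TNF-stimulated DMSO wells and 100% = unstimulated control wells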
Conditions: HUVEC TNFa-induced E-selectin immunofluorescence, at 2 µM, active compounds read high
For CCN1CCCC(OC(=O)C2(O)c3ccccc3C=Cc3ccccc32)C1 (stereo not drawn), the inhibition was inactive: 15.2%.
In the case of CC(C)N1C(=O)CC2(CCN(CCOC(=O)C(O)(c3ccccc3)c3ccccc3)CC2)C1=O, the inhibition is reported as inactive: 10.4%.
With O=C(OC1CN2CCC1CC2)C(CO)(c1ccccc1)c1ccccc1 (stereo not drawn) the inhibition was inactive: -16.1%.
